The text below walks through data of paper PMC3578765 (PLoS Neglected Tropical Diseases, 2013).

Series [1] relates to BR DEN2 01-01 infection of Huh-7.5. The series can be described thus: assay validation with reference compounds, 10-pt DRC of percent infection. In kind it is cell-based, Dengue virus. The conditions noted are these: percent infection normalized against DENV2-infected Huh-7.5, M.O.I. 0.5. How it is done: An immunofluorescence assay (IFA) used to detect dengue infection was optimized for the dengue HT/HCA. Briefly, cells were fixed with 4% (w/v) paraformaldehyde (PFA) for 20 min at room temperature (Rm T). PFA-fixed cells were treated with 0.25% (v/v) Triton-X for 20 min at Rm T. DENV-infected cells were detected by probing with 4G2 mAb prepared in blocking buffer: DPBS containing 5% FBS for 30 min at 37°C, followed by AlexaFluor-conjugated goat anti-mouse IgG (H+L) (Invitrogen Molecular Probes, USA) prepared in blocking buffer for 30 min at 37°C. Cell nuclei counterstained with 5 µg/mL 4′,6-diamidino-2-phenylindole (DAPI, Sigma-Aldrich, USA). Two washing cycles of DPBS was done after each step of the IFA. After the final washing, digital images were acquired using a high-throughput confocal fluorescence imaging system (Evotec Technologies High-Throughput Cell Analyzer Opera, Perkin Elmer, USA). The digital images were taken from 3 different fields of each well at 20× magnification.
Acquired images were analyzed using our in-house developed image-mining platform (IM). This platform is designed to do high-content screening and directly access the database of images that were sequentially analyzed with specially designed algorithms developed as a customized plug-in to the IM platform. The results of all the analyses were stored in a centralized database. […]

The subject of series [2] is Huh-7.5. The series can be described thus: assay validation with reference compounds, percent cell number in DENV2-infected Huh-7.5. The conditions noted are these: concentration at or above EC50, compared with MOCK-infected Huh-7.5. Here is the method: Acquired images were analyzed using our in-house developed image-mining platform (IM). This platform is designed to do high-content screening and directly access the database of images that were sequentially analyzed with specially designed algorithms developed as a customized plug-in to the IM platform. The results of all the analyses were stored in a centralized database. […] To define the percentage of dengue-infected cells and, conversely the non-infected cells, a modified watershed method was applied. […]
In both validation experiments, Huh-7.5 was mixed with DENV1, DENV2, DENV3 or DENV4 at a M.O.I. of 0.5 or VM only for MOCK-infection and dispensed in designated wells using the Thermo Scientific WellMate automated liquid dispenser. For the first validation experiment, the statistical reliability of the dengue HT/HCA was determined by calculating the Z'-factor for the percent infection or percent inhibition. Briefly, the Z'-factor of a defined parameter is calculated using the formula: 1−[(3σp+3σn)/(|μp−μn|)], where the μp, μn, σp and σn are the means (μ) and standard deviations (σ) of the positive (p) and negative (n) controls. […] Percent infection, percent inhibition, and percent cell number were determined using the customized IM platform plug-in. […]

The substance “IFNαA, Human: recombinant human Interferon-αA (IFN-α2A), Sigma-Aldrich, positive control” yielded an IC50 in series [1] of 232.6 U/mL. In series [2], the “cell number / cell toxicity at EC50” value was “higher cell numbers compared with MOCK-infected Huh-7.5”.
